Measurements from patent US10202339B2, “Therapeutic compounds and compositions” (AGIOS PHARMACEUTICALS, INC., priority 2012, dated 2019).

Protein sequences, listed by entry. Tags and fused reporters are not part of them. Residues count along the entry.
UniProt P48735, 40-452 R140Q: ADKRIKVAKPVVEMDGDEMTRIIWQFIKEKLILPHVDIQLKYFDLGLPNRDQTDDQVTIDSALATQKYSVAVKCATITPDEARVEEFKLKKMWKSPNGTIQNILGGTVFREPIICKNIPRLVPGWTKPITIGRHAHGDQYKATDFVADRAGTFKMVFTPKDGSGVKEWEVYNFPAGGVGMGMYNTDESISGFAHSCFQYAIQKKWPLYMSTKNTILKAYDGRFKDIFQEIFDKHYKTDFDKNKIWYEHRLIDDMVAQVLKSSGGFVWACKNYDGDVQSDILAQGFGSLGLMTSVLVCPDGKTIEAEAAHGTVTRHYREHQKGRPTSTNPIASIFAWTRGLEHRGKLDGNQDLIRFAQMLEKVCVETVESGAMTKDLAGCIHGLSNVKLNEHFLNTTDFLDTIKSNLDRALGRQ

Target: IDH2 R140Q (Homo sapiens (Human), UniProt P48735, R140Q)
Assay: IDH2 R140Q enzymatic cofactor depletion assay (diaphorase/resazurin)
Type: biochemical
Details: IDH2 R140Q enzyme, one hour preincubation with compound, one hour reaction; read-out: Enz R140Q
Protocol: Compounds were assayed for IDH2 R140Q inhibitory activity through a cofactor depletion assay. […] The reaction was terminated by the addition of a second enzyme, diaphorase, and a corresponding substrate, resazurin. Diaphorase reduces resazurin to the highly fluorescent resorufin with the concomitant oxidation of NADPH to NADP, both halting the IDH2 reaction by depleting the available cofactor pool and facilitating quantitation of the amount of cofactor remaining after a specific time period through quantitative production of an easily detected fluorophore.
Specifically, into each of 12 wells of a 384-well plate, 1 μl of compound dilution series was placed, followed by the addition of 40 μl of buffer (50 mM potassium phosphate, pH 7.5; 150 mM NaCl; 10 mM MgCl2, 10% glycerol, 0.05% bovine serum albumin, 2 mM beta-mercaptoethanol) containing 1.25 μg/ml IDH2 R140Q. […] After a further one hour of incubation at room temperature, the reaction was halted and the remaining NADPH measured through conversion of resazurin to resorufin by the addition of 25 μl Stop Mix (36 μg/ml diaphorase enzyme and 60 μM resazurin; in buffer). After one minute of incubation the plate was read on a plate reader at Ex544/Em590. […]

O=C(Nc1cccc(C(F)(F)F)c1)Nc1cc(S(=O)(=O)NC2CC2)ccc1-c1ccsc1 [Compound 124, N-cyclopropyl-4-(thiophen-3-yl)-3-(3-(3-(trifluoromethyl)phenyl)ureido)benzenesulfonamide]
IC50: 100 to 1000 nM
